This passage reports GI50 results from ChEMBL document CHEMBL1201862, “PubChem BioAssay data set” (2004).

Among the test systems are NCI/ADR-RES; OVCAR-5; MCF7; MDA-MB-231; MDA-MB-435; MDA-N; MOLT-4; Malme-3M; NCI-H226; NCI-H322M; NCI-H460; NCI-H522; OVCAR-3; OVCAR-4; OVCAR-8; PC-3; RPMI-8226; SF-268; SF-295; RXF 631.
Holding throughout (experiment): NCI tumour cell line growth inhibition, 48 h

The other results are listed elsewhere or left out. No stated cut-off is given here; in the data, active = GI50 up to about 1.1 µM and inactive = higher. These assays gave more results; the selection is not random.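 Following 48 hours of exposure in 96-well plates, responses at five concentrations were used to interpolate endpoints linearly. At the GI50, growth is halved.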 For some of these results: Potency and affinity values are given separately.

`CC1=C[C@H]2O[C@@H]3[C@H](O)[C@@H](O)[C@](C)([C@@]2(O)CC1)[C@]31CO1`: the figures for the GI50 in the experiment with NCI/ADR-RES and in the experiment with OVCAR-5 were inactive: 1.17 µM and inactive: 1.56 µM, respectively.

Take `COc1ccc(C[N+](C)(CCCl)CCCl)c([N+](=O)[O-])c1`: the GI50 in the experiment with MCF7 was inactive: > 100 µM; in the experiment with MDA-MB-231, inactive: > 100 µM; in the experiment with MDA-MB-435, inactive: > 100 µM; in the experiment with MDA-N, inactive: > 100 µM; in the experiment on MOLT-4 it was inactive: 40.5 µM; in the experiment with Malme-3M, inactive: 42.6 µM. Besides, the GI50 in the experiment with NCI-H226, in the experiment on NCI-H322M, in the experiment on NCI-H460, with NCI-H522, with NCI/ADR-RES and in the experiment with OVCAR-3 was inactive: > 100 µM each time. For the same compound, the GI50 was inactive: > 100 µM in the experiment on OVCAR-4; inactive: > 100 µM in the experiment on OVCAR-5; inactive: > 100 µM in the experiment with OVCAR-8; inactive: > 100 µM with PC-3; inactive: > 100 µM with RPMI-8226; inactive: 82.6 µM in the experiment with SF-268. Moreover, the GI50 in the experiment with SF-295 was inactive: > 100 µM.

As to `COc1ccc([N+](=O)[O-])c(C[N+](C)(CCCl)CCCl)c1`, the GI50 with MCF7 was inactive: > 100 µM; in the experiment on MDA-MB-231, inactive: > 100 µM; with MDA-MB-435, inactive: > 100 µM; with MDA-N it was inactive: > 100 µM; with MOLT-4 it was inactive: 69 µM; in the experiment on Malme-3M, inactive: > 100 µM. Further, the GI50 in the experiment on NCI-H322M is inactive: > 100 µM; in the experiment with NCI-H460 it was inactive: 71.8 µM; with NCI-H522, inactive: > 100 µM; with NCI/ADR-RES, inactive: > 100 µM; in the experiment on OVCAR-3 it was inactive: > 100 µM; in the experiment with OVCAR-4, inactive: > 100 µM. Also, the GI50 with OVCAR-5, in the experiment with OVCAR-8, in the experiment with PC-3, in the experiment on RPMI-8226, in the experiment on SF-268 and in the experiment on SF-295 was inactive: > 100 µM throughout.

As for `COP(C)(=O)C(N)Cc1ccccc1` (centres undefined), the GI50 in the experiment on MCF7 was inactive: > 100 µM; in the experiment with MDA-MB-435, inactive: 43.3 µM; with MDA-N, inactive: 42 µM; in the experiment on MOLT-4, inactive: > 100 µM; in the experiment on Malme-3M it was inactive: 70.1 µM; in the experiment on NCI-H226, inactive: > 100 µM. The GI50 is inactive: > 100 µM in the experiment with NCI-H322M; inactive: > 100 µM in the experiment with NCI-H460; inactive: 80.4 µM in the experiment on NCI-H522; inactive: > 100 µM in the experiment on NCI/ADR-RES; inactive: > 100 µM with OVCAR-3; inactive: > 100 µM in the experiment with OVCAR-4. Moreover, the GI50 in the experiment with OVCAR-5, in the experiment with OVCAR-8, with PC-3, in the experiment on RPMI-8226, in the experiment with SF-268 and in the experiment with SF-295 was inactive: > 100 µM throughout.

Consider `ClCCSc1c2ccccc2nc2ccccc12`, for which the GI50 is inactive: 3.37 µM with MCF7; inactive: 5.6 µM with MDA-MB-231; inactive: 11.8 µM in the experiment on MDA-MB-435; inactive: 12.6 µM in the experiment on MDA-N; inactive: 3.21 µM with MOLT-4; inactive: 3.29 µM in the experiment with Malme-3M. Besides, the GI50 in the experiment with NCI-H226 is inactive: 18.2 µM; in the experiment with NCI-H322M it was inactive: 17.6 µM; with NCI-H460 it was inactive: 25.5 µM; in the experiment with NCI-H522 it was inactive: 2.04 µM; with NCI/ADR-RES, inactive: 25.1 µM; in the experiment on OVCAR-3 it was inactive: 5 µM. For the same compound, the GI50 with OVCAR-4 was inactive: 17.5 µM; in the experiment with OVCAR-5, inactive: 22.8 µM; in the experiment on OVCAR-8, inactive: 6.82 µM; in the experiment with PC-3, inactive: 13 µM; in the experiment with RPMI-8226, inactive: 2.93 µM; with SF-268, inactive: 11.6 µM. Besides, in the experiment with SF-295, the GI50 is inactive: 30.6 µM.

With `CCCC[S+](N)(=O)CCC(N)P(=O)(O)O` (centres undefined), the GI50 in the experiment on MCF7 is inactive: > 100 µM; in the experiment on MDA-MB-231 it was inactive: > 100 µM; in the experiment with MDA-MB-435, inactive: 6.38 µM; with MDA-N, inactive: 24.4 µM; in the experiment on MOLT-4 it was inactive: 10 µM; in the experiment on NCI-H226, inactive: > 100 µM. Besides, the GI50 is inactive: > 100 µM in the experiment with NCI-H460; inactive: > 100 µM with NCI-H522; inactive: > 100 µM in the experiment on NCI/ADR-RES; inactive: > 100 µM in the experiment on OVCAR-3; inactive: 64.1 µM with OVCAR-4; inactive: > 100 µM in the experiment with OVCAR-5. Moreover, the GI50 in the experiment with OVCAR-8, with PC-3, in the experiment on RPMI-8226 and in the experiment on SF-295 was inactive: > 100 µM throughout.

As to `O=[N+]([O-])c1ncn(F)c1[N+](=O)[O-]`, the GI50 in the experiment on MCF7 was inactive: > 100 µM; with MDA-MB-231 it was inactive: > 100 µM; with MDA-MB-435, inactive: > 100 µM; with MOLT-4, inactive: > 100 µM; in the experiment with NCI-H226 it was inactive: 93.3 µM; in the experiment with NCI-H322M, inactive: > 100 µM. Moreover, the GI50 in the experiment on NCI-H460 is inactive: > 100 µM; in the experiment on NCI/ADR-RES, inactive: > 100 µM; with OVCAR-3 it was inactive: > 100 µM; with OVCAR-4, inactive: 49.9 µM; in the experiment with OVCAR-5, inactive: > 100 µM; in the experiment with OVCAR-8, inactive: > 100 µM. For the same compound, the GI50 with PC-3 and in the experiment on SF-295 was inactive: > 100 µM each time.

For the compound `Cc1ccc2ccc(C)c(C)c2c1.O=[N+]([O-])c1cc([N+](=O)[O-])c(O)c([N+](=O)[O-])c1O`, the GI50 with MCF7, with MDA-MB-231, with MDA-MB-435, with MDA-N, in the experiment on MOLT-4 and in the experiment on Malme-3M was inactive: > 100 µM each time. For the same compound, the GI50 is inactive: > 100 µM in the experiment on NCI-H226; inactive: > 100 µM in the experiment with NCI-H322M; active: 0.0375 µM with NCI-H460; inactive: 70.1 µM in the experiment on NCI-H522; inactive: > 100 µM in the experiment with NCI/ADR-RES; inactive: > 100 µM in the experiment on OVCAR-3. The GI50 was inactive: > 100 µM with OVCAR-4; inactive: > 100 µM in the experiment with OVCAR-5; inactive: 89.5 µM with OVCAR-8; inactive: > 100 µM in the experiment on PC-3; inactive: > 100 µM in the experiment on RPMI-8226; inactive: > 100 µM in the experiment with SF-268. Moreover, in the experiment on SF-295, the GI50 was inactive: > 100 µM.

For the compound `O=C1Nc2ccc([N+](=O)[O-])cc2/C1=N/Nc1ccc([N+](=O)[O-])cc1[N+](=O)[O-]`, the GI50 in the experiment on MOLT-4 is inactive: 31.7 µM; in the experiment with Malme-3M, inactive: 17.8 µM; in the experiment on NCI-H226, inactive: 23.4 µM; with NCI-H322M, inactive: 20.7 µM; in the experiment with NCI-H460, inactive: 20.7 µM; in the experiment with NCI-H522, inactive: 20.3 µM. Also, the GI50 is inactive: 18 µM in the experiment on OVCAR-3; inactive: 17.9 µM with OVCAR-4; inactive: 19.9 µM in the experiment with OVCAR-8; inactive: 24.6 µM in the experiment with RPMI-8226; inactive: 20.6 µM with RXF 631; inactive: 36 µM in the experiment with SF-268. Further, the GI50 with SF-295 is inactive: 17.7 µM.

Take `CC1=C[C@H]2O[C@@H]3C[C@H]4OC(=O)/C=C\C=C/[C@H]([C@@H](C)O)OC[C@H](O)[C@@]5(C)O[C@@H]5C(=O)OC[C@@]2(C[C@H]1O)[C@]4(C)C31CO1` (some centres undefined): the GI50 in the experiment with MDA-MB-231 is active: 0.233 µM.

In the case of `O=C1CCN2CCCC12` (centres undefined), the GI50 is inactive: > 100 µM with MCF7; inactive: > 100 µM in the experiment on MDA-MB-231; inactive: 40.6 µM in the experiment with MDA-MB-435; inactive: 62.2 µM with MDA-N; inactive: > 100 µM in the experiment with MOLT-4; inactive: 85.5 µM in the experiment on Malme-3M. Further, the GI50 is inactive: > 100 µM with NCI-H226; inactive: > 100 µM in the experiment on NCI-H322M; inactive: > 100 µM with NCI-H460; inactive: 64.3 µM with NCI-H522; inactive: > 100 µM in the experiment with NCI/ADR-RES; inactive: > 100 µM in the experiment on OVCAR-4. The GI50 in the experiment with OVCAR-5, in the experiment on OVCAR-8, in the experiment on PC-3, in the experiment on RPMI-8226 and in the experiment on SF-268 was inactive: > 100 µM in each case.

Consider `Cc1[nH]c2c(C)c([N+](=O)[O-])c(C)c([N+](=O)[O-])c2c1[N+](=O)[O-]`, for which the GI50 with MOLT-4 was inactive: 4.63 µM; in the experiment with Malme-3M it was inactive: 5.21 µM; with NCI-H322M, inactive: 11 µM; in the experiment on NCI-H460, inactive: 10.5 µM; in the experiment with OVCAR-3 it was inactive: 3.27 µM; in the experiment on OVCAR-4, inactive: 10 µM. In addition, the GI50 in the experiment on OVCAR-8 was inactive: 6.14 µM; with RPMI-8226, inactive: 3.66 µM; with SF-268 it was inactive: 6.17 µM; in the experiment on SF-295 it was inactive: 6.21 µM.

On to `O=[N+]([O-])C1([N+](=O)[O-])CCCc2nonc21`, for which the GI50 is inactive: 34 µM with MCF7; inactive: 37.2 µM with MDA-MB-231; inactive: 42 µM with MDA-MB-435; inactive: 4.73 µM with MDA-N; inactive: 24.5 µM in the experiment on MOLT-4; inactive: 30.5 µM in the experiment on Malme-3M. Also, the GI50 in the experiment with NCI-H226 was inactive: > 100 µM; in the experiment with NCI-H460, inactive: 36.1 µM; in the experiment on NCI-H522 it was inactive: 16.5 µM; with NCI/ADR-RES, inactive: 36.6 µM; with OVCAR-3 it was inactive: 54.6 µM; in the experiment on OVCAR-4, inactive: 38 µM. For the same compound, the GI50 in the experiment with OVCAR-5 was inactive: > 100 µM; in the experiment on OVCAR-8 it was inactive: 33.3 µM; with PC-3, inactive: 34 µM; with RPMI-8226 it was inactive: 26.4 µM; in the experiment on SF-268, inactive: 69.8 µM; in the experiment with SF-295 it was inactive: > 100 µM.
